Results as given in ChEMBL document CHEMBL1145831, “A convergent approach to cryptophycin 52 analogues: synthesis and biological evaluation of a novel series of fragment a epoxides and chlorohydrins” (J Med Chem, 2003).

What was measured:
Mus musculus [1] = species on record: Mus musculus
Mus musculus [2] = species on record: Mus musculus; remark: listed apart in the source
Mus musculus [3] = species on record: Mus musculus; remark: listed apart in the source
Mus musculus [4] = species on record: Mus musculus; remark: listed apart in the source
Mus musculus [5] = species on record: Mus musculus; remark: listed apart in the source
Mus musculus [6] = species on record: Mus musculus; remark: listed apart in the source
Mus musculus [7] = species on record: Mus musculus; remark: listed apart in the source
Mus musculus [8] = species on record: Mus musculus; remark: listed apart in the source
Mus musculus [9] = species on record: Mus musculus; remark: listed apart in the source
Mus musculus [10] = species on record: Mus musculus; remark: listed apart in the source
Mus musculus [11] = species on record: Mus musculus; remark: listed apart in the source

Work on `COc1ccc(C[C@H]2NC(=O)/C=C/C[C@@H]([C@H](C)[C@@H](O)[C@@H](Cl)c3ccc(COC(=O)CN)cc3)OC(=O)[C@H](CC(C)C)OC(=O)C(C)(C)CNC2=O)cc1Cl.Cl` yielded a Log kill (Mus musculus [1]) of 3.6 and a Log kill (Mus musculus [2]) of 3.7.

`COc1ccc(C[C@H]2NC(=O)/C=C/C[C@@H]([C@H](C)[C@H]3O[C@@H]3c3ccccc3)OC(=O)[C@H](CC(C)C)OC(=O)C(C)(C)CNC2=O)cc1Cl` [CRYPTOPHYCIN 52] gave a Log kill (Mus musculus [3]) of 1.9.

`COc1ccc(C[C@H]2NC(=O)/C=C/C[C@@H]([C@H](C)[C@@H](O)[C@@H](Cl)c3ccc(CN4CCNCC4)cc3)OC(=O)[C@H](CC(C)C)OC(=O)C(C)(C)CNC2=O)cc1Cl.Cl.Cl` gave a Log kill (Mus musculus [4]) of 0.8, a Log kill (Mus musculus [5]) of 4.7 and a Log kill (Mus musculus [6]) of 4.7.

In the case of `COc1ccc(C[C@H]2NC(=O)/C=C/C[C@@H]([C@H](C)[C@@H](O)[C@@H](Cl)c3cccc(C)c3)OC(=O)[C@H](CC(C)C)OC(=O)C(C)(C)CNC2=O)cc1Cl`, the Log kill (Mus musculus [7]) is reported as 1.5.

With `COc1ccc(C[C@H]2NC(=O)/C=C/C[C@@H]([C@H](C)[C@@H](O)[C@@H](Cl)c3ccccc3)OC(=O)[C@H](CC(C)C)OC(=O)C(C)(C)CNC2=O)cc1Cl` the Log kill (Mus musculus [8]) was over 4.5, the Log kill (Mus musculus [9]) was over 4.5 and the Log kill (Mus musculus [10]) was over 4.5.

`COc1ccc(C[C@H]2NC(=O)/C=C/C[C@@H]([C@H](C)[C@H]3O[C@@H]3c3ccc(CO)cc3)OC(=O)[C@H](CC(C)C)OC(=O)C(C)(C)CNC2=O)cc1Cl` showed a Log kill (Mus musculus [11]) of 2.
